Results as given in patent publication US11472769B2, “SSAO inhibitors and use thereof” (Eccogene (Shanghai) Co., Ltd., priority 2019, dated 2022).
Read-outs that look alike come from different tables or passages of the source.

The chains behind the UniProt entries cited, without tags or fusion partners.
UniProt Q16853, whole entry: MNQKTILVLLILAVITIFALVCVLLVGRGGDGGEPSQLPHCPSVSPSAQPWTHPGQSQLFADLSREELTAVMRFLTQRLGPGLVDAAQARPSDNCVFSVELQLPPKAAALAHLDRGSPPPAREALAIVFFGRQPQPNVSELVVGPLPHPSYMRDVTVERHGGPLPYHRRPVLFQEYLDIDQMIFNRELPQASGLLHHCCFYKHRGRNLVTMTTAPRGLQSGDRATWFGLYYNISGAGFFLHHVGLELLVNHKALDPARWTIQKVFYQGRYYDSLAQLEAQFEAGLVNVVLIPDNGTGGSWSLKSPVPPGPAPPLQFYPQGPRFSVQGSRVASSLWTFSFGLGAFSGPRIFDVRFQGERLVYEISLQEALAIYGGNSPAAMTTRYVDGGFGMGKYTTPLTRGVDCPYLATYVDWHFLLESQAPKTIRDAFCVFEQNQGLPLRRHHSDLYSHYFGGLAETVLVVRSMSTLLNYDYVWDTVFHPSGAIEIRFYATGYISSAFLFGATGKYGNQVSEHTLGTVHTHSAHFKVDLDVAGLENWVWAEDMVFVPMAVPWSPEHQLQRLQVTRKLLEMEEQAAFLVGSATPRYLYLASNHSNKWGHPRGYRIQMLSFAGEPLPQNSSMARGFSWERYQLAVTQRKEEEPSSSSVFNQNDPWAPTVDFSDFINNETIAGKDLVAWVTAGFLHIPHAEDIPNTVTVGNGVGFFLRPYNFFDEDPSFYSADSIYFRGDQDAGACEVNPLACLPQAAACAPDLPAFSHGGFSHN
UniProt P21397, whole entry: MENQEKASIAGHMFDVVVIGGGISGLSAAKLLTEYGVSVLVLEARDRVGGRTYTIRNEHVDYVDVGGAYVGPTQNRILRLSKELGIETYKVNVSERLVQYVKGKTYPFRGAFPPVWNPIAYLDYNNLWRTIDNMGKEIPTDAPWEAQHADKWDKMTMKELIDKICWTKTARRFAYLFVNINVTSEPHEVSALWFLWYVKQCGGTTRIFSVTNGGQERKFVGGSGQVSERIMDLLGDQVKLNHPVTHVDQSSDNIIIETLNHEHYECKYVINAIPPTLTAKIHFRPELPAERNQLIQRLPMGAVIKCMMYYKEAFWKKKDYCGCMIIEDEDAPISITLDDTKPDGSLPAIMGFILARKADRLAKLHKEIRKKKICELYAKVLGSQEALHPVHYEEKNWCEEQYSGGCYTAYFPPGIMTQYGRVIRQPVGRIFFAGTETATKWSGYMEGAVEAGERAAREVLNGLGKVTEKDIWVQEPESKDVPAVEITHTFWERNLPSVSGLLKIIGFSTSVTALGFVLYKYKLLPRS
UniProt P27338, whole entry: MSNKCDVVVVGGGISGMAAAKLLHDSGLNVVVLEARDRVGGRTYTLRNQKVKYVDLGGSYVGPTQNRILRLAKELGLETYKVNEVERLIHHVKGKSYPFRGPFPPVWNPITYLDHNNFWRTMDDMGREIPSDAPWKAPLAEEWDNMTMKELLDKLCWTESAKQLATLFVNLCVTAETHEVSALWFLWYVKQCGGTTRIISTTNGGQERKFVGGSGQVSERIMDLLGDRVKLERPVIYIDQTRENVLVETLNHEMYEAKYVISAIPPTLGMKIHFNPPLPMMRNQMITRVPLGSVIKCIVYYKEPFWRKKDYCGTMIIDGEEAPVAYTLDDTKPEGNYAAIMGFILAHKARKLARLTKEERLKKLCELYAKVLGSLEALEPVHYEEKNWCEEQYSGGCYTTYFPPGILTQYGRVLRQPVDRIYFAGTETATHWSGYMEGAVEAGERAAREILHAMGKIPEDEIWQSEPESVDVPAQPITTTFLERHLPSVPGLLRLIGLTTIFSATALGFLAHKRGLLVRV

Experiments:
Format in all cases: biochemical
recombinant hSSAO = recombinant hSSAO (Homo sapiens (Human), UniProt Q16853); experiment: SSAO Activity Assay (MAO-Glo assay kit)
recombinant hMAO-A = recombinant hMAO-A (Homo sapiens (Human), UniProt P21397); experiment: MAO-A activity assay (MAO-Glo assay kit); details: read-out: MAO-A Activity (IC50), 40 μM substrate, 30 mins pre-incubation, tested form: HCl
recombinant hMAO-B = recombinant hMAO-B (Homo sapiens (Human), UniProt P27338); experiment: MAO-B activity assay (MAO-Glo assay kit)
[1] = read-out: SSAO Activity (IC50), 40 μM substrate, 30 mins pre-incubation, tested form: HCl
[2] = read-out: MAO-B Activity (IC50), 4 μM substrate, 30 mins pre-incubation, tested form: HCl
[3] = read-out: SSAO Activity (IC50), 40 μM substrate, 30 mins pre-incubation

IC50 (recombinant hMAO-A) | IC50 (recombinant hMAO-B; [2]) | IC50 (recombinant hSSAO; [3]) | SMILES | also measured
> 30000 nM | > 30000 nM |  | CC(CN1CCCC1=O)CS(=O)(=O)c1ccc(OC/C(=C/F)CN)cc1 (single isomer, unassigned) | IC50 (recombinant hSSAO; read-out: SSAO Activity (IC50), 40 μM substrate, 30 mins pre-incubation, tested form: HCl, listed as 93 or 94): > 500 nM; IC50 (recombinant hSSAO; read-out: SSAO Activity (IC50), 40 μM substrate, 30 mins pre-incubation, tested form: HCl, listed as 94 or 93): 20 to 100 nM
 |  | 20 to 100 nM | C[C@H](CN1CCOCC1)CS(=O)(=O)c1ccc(OC/C(=C/F)CN)cc1 | 
 |  | 20 to 100 nM | C[C@@H](CN1CCCCC1=O)CS(=O)(=O)c1ccc(OC/C(=C/F)CN)cc1 | 

The remaining lines, values behind:

SMILES | IC50 (recombinant hMAO-A) | IC50 (recombinant hMAO-B; [2]) | IC50 (recombinant hSSAO; [3]) | also measured
CC(CN1CCC2(CCCC2)C1=O)CS(=O)(=O)c1ccc(OC/C(=C/F)CN)cc1 (single isomer, unassigned) | > 30000 nM | < 10000 nM |  | IC50 (recombinant hSSAO; [1]): 20 to 100 nM
NCC(=CF)COc1ccc(S(=O)(=O)CC2CCOC2)cc1 (single isomer, unassigned) |  |  | 20 to 100 nM | 
C[C@H](CN1CCCCC1=O)CS(=O)(=O)c1ccc(OC/C(=C/F)CN)cc1 |  |  | 20 to 100 nM | 
NCC(=CF)COc1ccc(S(=O)(=O)CC2CCCO2)cc1 (single isomer, unassigned) |  |  |  | IC50 (recombinant hSSAO; read-out: SSAO Activity (IC50), 40 μM substrate, 30 mins pre-incubation, listed as 23 or 24): 20 to 100 nM
CC(C)N1CCC2(CCC(CS(=O)(=O)c3ccc(OC/C(=C/F)CN)cc3)CC2)C1=O (single isomer, unassigned) | > 30000 nM | > 30000 nM |  | IC50 (recombinant hSSAO; [1]): 20 to 100 nM
CC1(C)COC(CS(=O)(=O)c2ccc(OC/C(=C/F)CN)cc2)CO1 (single isomer, unassigned) |  |  | 20 to 100 nM | IC50 (recombinant hMAO-B; read-out: MAO-B Activity (IC50), 4 μM substrate, 30 mins pre-incubation): 10000 to 30000 nM
